Laboratory results published in publication PMC3193285 (ACS Medicinal Chemistry Letters, 2011).

Biological target: T1, NOD1 (Homo sapiens, UniProt Q9Y239)
T1 sequence (Q9Y239 1-953): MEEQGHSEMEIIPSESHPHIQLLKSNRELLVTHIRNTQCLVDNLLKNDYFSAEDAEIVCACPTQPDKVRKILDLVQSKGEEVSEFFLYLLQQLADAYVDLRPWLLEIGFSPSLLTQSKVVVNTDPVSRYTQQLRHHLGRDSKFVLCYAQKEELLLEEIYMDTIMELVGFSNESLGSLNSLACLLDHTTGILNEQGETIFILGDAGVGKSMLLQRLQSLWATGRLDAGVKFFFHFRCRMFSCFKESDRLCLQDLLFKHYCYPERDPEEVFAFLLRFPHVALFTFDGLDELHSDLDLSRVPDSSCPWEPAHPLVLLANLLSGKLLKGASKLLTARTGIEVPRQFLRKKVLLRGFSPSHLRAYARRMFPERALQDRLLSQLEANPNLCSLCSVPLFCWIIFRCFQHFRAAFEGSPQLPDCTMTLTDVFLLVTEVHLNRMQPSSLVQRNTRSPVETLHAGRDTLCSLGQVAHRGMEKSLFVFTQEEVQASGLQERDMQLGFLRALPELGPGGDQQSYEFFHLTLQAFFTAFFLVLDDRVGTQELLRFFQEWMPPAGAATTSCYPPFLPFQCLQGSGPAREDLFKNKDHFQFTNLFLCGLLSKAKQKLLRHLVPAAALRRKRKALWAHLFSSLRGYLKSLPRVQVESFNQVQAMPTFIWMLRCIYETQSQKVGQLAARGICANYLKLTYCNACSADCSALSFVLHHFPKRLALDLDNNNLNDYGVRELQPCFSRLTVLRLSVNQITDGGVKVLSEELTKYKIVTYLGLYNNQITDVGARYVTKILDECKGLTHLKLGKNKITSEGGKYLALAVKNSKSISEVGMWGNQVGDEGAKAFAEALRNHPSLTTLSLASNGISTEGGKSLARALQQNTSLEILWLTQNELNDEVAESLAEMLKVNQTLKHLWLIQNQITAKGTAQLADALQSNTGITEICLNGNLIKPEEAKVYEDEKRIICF
Format: cell-based

Row | Structure (SMILES) | selectivity for NOD1-dependent activation of NF-κB (over NOD2- and TNF-α-induced NF-κB activation) [fold] | decrease of NOD1 inhibitory activity / potency (relative to the parent analogue 1c series, Table 3) [fold]
1 | Cc1ccc(S(=O)(=O)n2c(N)nc3ccccc32)cc1 [1c] | > 36 | –
2 | Nc1nc2ccccc2n1Cc1ccc(Cl)cc1 [10c] | – | 15
